Laboratory results from patent US20080249103A1, “Sirtuin polymorphisms and methods of use thereof” (Sirtris Pharmaceuticals, Inc., priority 2006, published 2008).

Test system: diet induced obese (DIO) mouse
Test: Diet Induced Obesity (DIO) mouse model
Format: in vivo, C57BL/6 mice
Details: DIO mice, after 5 weeks of treatment; SRT1933 100 mg/kg, rosiglitazone 5 mg/kg once daily oral
Method: The vehicle used was 2% HPMC −0.2% DOSS. Individual mouse body weights were measured twice weekly. Every 2 weeks throughout the study, mice from each group were bled via the tail vein for determination of blood glucose and blood plasma insulin. After 1, 3 and 5 weeks of dosing, a fasted blood glucose measure was taken and after 5 weeks of treatment an IPGTT was conducted on all mice from each of the groups. After 9 weeks of treatment, an ITT was conducted and a rectal body temperature was taken on all mice from each of the groups. Statistical analysis was completed using the JMP program (Version 6). Data were analyzed by a one way ANOVA with comparison to control using a Dunnett's Test. A p value <0.05 indicated a significant difference between groups.

Q: With `CN(CCOc1ccc(CC2SC(=O)NC2=O)cc1)c1ccccn1` (stereo not shown) [rosiglitazone, reference compound] as the molecule, how does the “glucose excursion in OGTT (AUC)” value read?
A: 496 ± 20 mg·h/dL
